Results published in PMC7048932, “Examining sterically demanding lysine analogs for histone lysine methyltransferase catalysis” (Scientific Reports, 2020).

What was measured:
Format in all cases: biochemical
G9a = biological target: T1, G9a (Homo sapiens, UniProt Q96KQ7); test: MALDI-TOF MS methylation assay of H3K9 peptides with G9a; details: peptide 100 µM, G9a 2 µM, SAM 500 µM, 1 h, 37 °C
T1 construct: His6 (N); made in house; host or cells: E. coli BL21 (DE3)pLysS-rosetta
T1 sequence (Q96KQ7 1-1210): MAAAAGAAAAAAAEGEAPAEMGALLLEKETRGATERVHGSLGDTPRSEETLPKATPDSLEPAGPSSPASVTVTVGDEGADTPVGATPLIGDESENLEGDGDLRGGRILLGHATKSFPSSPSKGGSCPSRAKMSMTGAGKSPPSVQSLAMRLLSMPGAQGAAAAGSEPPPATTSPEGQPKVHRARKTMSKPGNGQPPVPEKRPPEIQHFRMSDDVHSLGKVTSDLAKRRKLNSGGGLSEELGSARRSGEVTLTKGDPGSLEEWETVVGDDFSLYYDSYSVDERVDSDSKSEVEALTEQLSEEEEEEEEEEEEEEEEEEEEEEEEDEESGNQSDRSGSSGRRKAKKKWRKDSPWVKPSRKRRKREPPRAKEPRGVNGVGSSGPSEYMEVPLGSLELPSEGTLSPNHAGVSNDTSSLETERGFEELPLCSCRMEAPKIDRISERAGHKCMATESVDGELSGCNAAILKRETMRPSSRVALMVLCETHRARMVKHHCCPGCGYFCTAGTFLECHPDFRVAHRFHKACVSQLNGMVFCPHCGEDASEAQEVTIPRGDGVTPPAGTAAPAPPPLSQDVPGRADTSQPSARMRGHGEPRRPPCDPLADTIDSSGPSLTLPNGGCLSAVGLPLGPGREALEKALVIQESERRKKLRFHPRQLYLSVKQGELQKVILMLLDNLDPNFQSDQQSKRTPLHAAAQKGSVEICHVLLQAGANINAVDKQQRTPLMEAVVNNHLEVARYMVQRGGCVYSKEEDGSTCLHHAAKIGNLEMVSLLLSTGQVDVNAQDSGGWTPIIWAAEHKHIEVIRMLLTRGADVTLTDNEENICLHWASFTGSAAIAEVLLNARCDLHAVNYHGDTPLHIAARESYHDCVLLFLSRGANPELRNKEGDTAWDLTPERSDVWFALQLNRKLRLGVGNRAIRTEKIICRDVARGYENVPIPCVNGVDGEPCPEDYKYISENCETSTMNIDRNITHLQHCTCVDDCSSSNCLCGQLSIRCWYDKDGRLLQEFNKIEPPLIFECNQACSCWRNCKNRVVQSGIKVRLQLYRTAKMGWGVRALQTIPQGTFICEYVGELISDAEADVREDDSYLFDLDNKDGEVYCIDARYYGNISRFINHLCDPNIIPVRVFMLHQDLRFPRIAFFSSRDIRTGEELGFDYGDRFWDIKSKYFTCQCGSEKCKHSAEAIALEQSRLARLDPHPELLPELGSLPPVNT
Description: (§1) MALDI-MS methyltransferases activity experiments were performed using a Bruker instrument in the reflectron positive mode. For regular methyltransferase standard conditions experiment which carried out in 30 µL total volume, the mixture contains peptide (100 µM), SAM (200 µM), SETD8 or SETD7 (2 µM), in assay buffer 50 mM Tris at optimal pH 8.0. In case of G9a and GLP, similar conditions were used, except (500 µM) of SAM was added to the reaction mixture. Samples were incubated in an Eppendorf vial 1.5 mL using thermomixer for 1 h at 37 °C. A 5 µL aliquot of the solution was mixed with 5 µL of MeOH, after which 5 µL of this mixture was mixed with 5 µL of α-cyano-4-hydroxycinamic acid matrix (CHCA, 5 mg/mL in 125:125 µL acetonitrile/water). The spots were placed on a stainless steel MALDI plate (MS 96 target ground steel BC of Bruker, Germany). The mass corresponding to one monomethylation observed as +14 Da, dimethylation observed as +28 Da and trimethylation observed as +42 Da. The enzymatic activity was determined by taking the peak areas of each methylation state, including all isotopes and adducts, and was annotated using FlexAnalysis software (Bruker Daltonics, Germany). […] Methylated peptide substrates were repeated five times and the unmethylated substrates were triplicated. Sequences of the examined peptides are given in (Supplementary Table 1).

GLP [1] = biological target: T2, GLP (Homo sapiens, UniProt Q9H9B1); test: MALDI-TOF MS methylation assay of H3K9 peptides with GLP; details: peptide 100 µM, GLP 10 µM, SAM 1 mM, 5 h, 37 °C
T2 construct: His6 (N); made in house; host or cells: E. coli BL21 (DE3)pLysS-rosetta
T2 sequence (Q9H9B1 1-1298): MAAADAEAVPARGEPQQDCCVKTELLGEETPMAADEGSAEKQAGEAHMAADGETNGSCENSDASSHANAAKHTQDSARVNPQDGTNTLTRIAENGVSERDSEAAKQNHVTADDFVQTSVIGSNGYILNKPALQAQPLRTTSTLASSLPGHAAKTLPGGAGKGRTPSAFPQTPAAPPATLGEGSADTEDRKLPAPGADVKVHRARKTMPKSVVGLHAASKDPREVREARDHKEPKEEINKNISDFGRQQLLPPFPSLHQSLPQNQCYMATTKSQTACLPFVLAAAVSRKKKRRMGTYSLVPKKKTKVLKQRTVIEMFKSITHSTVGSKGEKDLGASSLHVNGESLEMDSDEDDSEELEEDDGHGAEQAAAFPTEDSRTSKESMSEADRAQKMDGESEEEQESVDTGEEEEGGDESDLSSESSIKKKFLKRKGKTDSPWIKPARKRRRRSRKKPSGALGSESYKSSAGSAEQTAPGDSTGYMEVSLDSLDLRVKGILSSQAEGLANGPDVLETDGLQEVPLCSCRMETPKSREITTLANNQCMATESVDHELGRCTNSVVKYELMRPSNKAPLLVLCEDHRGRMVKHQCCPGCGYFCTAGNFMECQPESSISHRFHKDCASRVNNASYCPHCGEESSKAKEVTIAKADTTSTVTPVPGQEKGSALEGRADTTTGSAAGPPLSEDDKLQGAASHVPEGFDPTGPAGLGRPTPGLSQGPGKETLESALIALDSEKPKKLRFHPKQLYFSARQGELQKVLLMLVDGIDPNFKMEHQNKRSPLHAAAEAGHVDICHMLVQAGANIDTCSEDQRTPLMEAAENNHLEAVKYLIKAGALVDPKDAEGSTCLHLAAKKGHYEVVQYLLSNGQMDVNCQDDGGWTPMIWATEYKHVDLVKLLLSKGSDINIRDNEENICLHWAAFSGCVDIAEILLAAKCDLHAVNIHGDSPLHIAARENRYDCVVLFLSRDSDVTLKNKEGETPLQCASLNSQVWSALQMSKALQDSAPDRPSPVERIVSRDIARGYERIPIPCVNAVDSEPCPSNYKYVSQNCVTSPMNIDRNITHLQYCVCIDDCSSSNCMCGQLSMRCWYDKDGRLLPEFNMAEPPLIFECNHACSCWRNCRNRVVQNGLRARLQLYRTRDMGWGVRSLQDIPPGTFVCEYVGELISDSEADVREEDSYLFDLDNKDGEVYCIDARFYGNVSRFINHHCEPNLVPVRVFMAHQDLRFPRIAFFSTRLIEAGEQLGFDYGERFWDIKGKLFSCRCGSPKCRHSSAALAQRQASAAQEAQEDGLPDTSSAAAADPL
Description: as §1, with “Samples were incubated in an Eppendorf vial 1.5 mL using thermomixer for 1 h at 37 °C.” left out

GLP [2] = biological target: T2, GLP; test: NMR assay of GLP-catalyzed methylation of H3K9 peptides; details: peptide 400 µM, GLP 8 µM, SAM 2 mM, 50 mM Tris-d11.HCl pD 8.0, 1 h, 37 °C

ARTKQTARK^9STGGKA [H3K9, reference compound]
G9a-catalyzed methylation, result in words (G9a): trimethylation | GLP-catalyzed methylation, result in words, increased GLP/SAM (GLP [1]): major trimethylation | GLP-catalyzed methylation by 1H NMR / 1H-13C HSQC, result in words (GLP [2]): formation of the trimethylated species
